Holding throughout (test): In vitro cytotoxicity of free drugs (resazurin, 96 h)
Test [1] deals with anaplastic large cell lymphoma cell line Karpas 299. Format: cell-based, human. The settings on record: read-out: IC50s (nM) Karpas 299, free drug.
The subject of test [2] is Hodgkin's disease cell line L428. The format is cell-based. The settings on record: read-out: IC50s (nM) L428, free drug.
Test [3] relates to Hodgkin's disease cell line L540cy. The format is cell-based. The settings on record: read-out: IC50s (nM) L540cy, free drug.
For test [4], the system named is colon carcinoma cell line HCT-116. Format: cell-based. The note with it: read-out: IC50s (nM) HCT-116, free drug.
For test [5], the system named is renal cell carcinoma cell line Caki-1. The format is cell-based. The note with it: read-out: IC50s (nM) Caki-1, free drug.
Test [6] has as its system renal cell carcinoma cell line 786-O. Format: cell-based. The settings on record: read-out: IC50s (nM) 786-O, free drug.

Turning to NMeValValDilDapphosphonoPhe [MMApF-B], the values for the IC50 in test [1], in test [2] and in test [3] were 470 nM, 935 nM and 363 nM, respectively.
In the same order, the values of NMeValValDilDapphosphonoPhe [MMApF-A] are 790 nM, 237 nM and 363 nM.
For “CbzNMeValValDilDapphosphonoPhe diethylester”, the IC50 in test [1] was 0.2 nM; in test [2], 1.26 nM; in test [4] it was 0.085 nM; in test [3], 0.25 nM; in test [5] it was 0.009 nM; in test [6], 1.1 nM.
